Legend:
Format in all cases: cell-based
[1] = system: SK-BR-3 cells; test: Transwell assay, longitudinal migration of SK-BR-3 cells induced by CXCL12; conditions: 1000 nM of HSA, pre-experiment
Experimental: 800 μL of RPMI-1640 medium containing 5% FBS was added to the lower chamber (Corning 24-well plate), along with adding the aqueous solution of CXCL12 (100 ng/mL) to induce the cells. The culture plate was incubated in a 37° C., 5% CO2 incubator for 24 h. The trans well chamber was removed and the non-migratory cells on the surface of the upper chamber of the filter membrane were carefully wiped with cotton swabs. […] Five fields in view were taken from each chamber membrane according to the orientation in the upper, lower, left, right and middle directions. The number N of migrated cells in each field of view was counted and the cell migration rate (migration rate=Npolypeptide-HSA complex/Nblank control×100%) was calculated based on the averaged values. Indirectly, the crystal violet was eluted from the stained chamber membrane with 800 μL of 33% acetic acid solution, and 100 μL of the eluate was assayed for OD value at 570 nm using a microplate reader.

[2] = system: MDA-MB-231 cells; test: CCK cell viability (proliferation-toxicity) of MDA-MB-231 cells; conditions: 4 μM HSA, pre-experiment
Experimental: MDA-MB-231 was used as a model system for studying breast cancer cell lines. In a Corning 96-well plate, 1×10^4 cells were incubated with 100 μL of DMEM medium (containing 10% fetal bovine serum (FBS) and 1% penicillin-streptomycin) per well and the 96-well plate was pre-incubated under 37° C. and 5% CO2 for 24 hours. 10 μL of polypeptide-HSA complex in PBS at various concentrations were added to the plate so that the final concentrations of the polypeptides were 10 nM, 100 nM, 400 nM, 1 μM, and 4 μM respectively. A blank control was obtained by adding only 10 μL of PBS solution. The culture plates were incubated in an incubator for 48 h, and 10 μL of CCK solution was added to each well. The culture plates were incubated for 2 h in the incubator and the absorbance values (OD values) at 450 nm wavelength were measured by a continuous-spectrum multifunctional microplate reader to calculate cell viability.

[3] = system: MDA-MB-231 cells; test: Transwell assay, longitudinal migration of MDA-MB-231 cells induced by CXCL12; conditions: 1000 nM of HSA, pre-experiment
Experimental: 800 μL of the serum-free DMEM medium was added to the lower chamber, along with adding an aqueous solution of CXCL12 (100 ng/mL) to induce the cells. […] The trans well chamber was removed and the non-migratory cells on the surface of the upper chamber of the filter membrane were carefully wiped with cotton swabs. […] Five fields in view were taken for each chamber membrane according to the orientation in the upper, lower, left, right and middle directions. The number of migrated cells in each field of view was counted and the cell migration rate was calculated based on the averaged values. Indirectly, the crystal violet was eluted from the stained chamber membrane with 800 μL of 33% acetic acid solution, and 100 μL of the eluate was assayed for OD value at 570 nm using a microplate reader.

[4] = system: SK-BR-3 cells; test: Scratch assay, lateral migration of SK-BR-3 cells induced by CXCL12; conditions: 1000 nM of HSA, pre-experiment
Experimental: In a Corning 6-well plate, 40×10^4 SK-BR-3 cells were incubated with 2 mL of RPMI-1640 medium (containing 10% fetal bovine serum (FBS) and 1% penicillin-streptomycin) per well. The 6-well plate was pre-incubated for 24 h in a 37° C., 5% CO2 incubator. When SK-BR-3 cells were grown to near 90% confluency, 10 μL sterile pipette tips were used to scratch along a straight line in the wells of the plate. Then the cells were gently washed three times with PBS solution. Afterwards, RPMI-1640 medium containing 5% FBS was added to each well and meanwhile the CXCL12 aqueous solution was added to induce the cells, so that the molecule concentration of CXCL12 in each well was 100 ng/mL. […] The migration of the cells and the change of the scratch width L at 0 h and 24 h after scratching were observed by a microscope with 10×lens (IX71, OLYMPUS, Japan) and the cell migration rate (cell migration rate=polypeptide-HSA complex cell migration rate (L0 h−L24 h/L0 h)/blank control cell migration rate (L0 h−L24 h/L0 h)×100%) was calculated.

[5] = system: MDA-MB-231 cells; test: Scratch assay, lateral migration of MDA-MB-231 cells induced by CXCL12; conditions: 1000 nM of HSA, pre-experiment
Experimental: In a Corning 6-well plate, 20×10^4 cells were incubated with 2 mL of DMEM medium (containing 10% fetal bovine serum (FBS) and 1% penicillin-streptomycin) per well. The 6-well plate was pre-incubated for 24 h in a 37° C., 5% CO2 incubator. When MDA-MB-231 cells were grown to near 80% confluency, 10 μL sterile pipette tips were used to scratch along a straight line in the wells of the plate. Then the cells were gently washed three times with PBS solution. Afterwards, the serum-free DMEM medium was added to each well and meanwhile the CXCL12 aqueous solution was added to induce the cells, so that the concentration of CXCL12 in each well was 100 ng/mL. Then, the solution of polypeptide-HSA complex in PBS was added so that the final concentration of the polypeptide was 10 nM, 100 nM, and 1000 nM respectively, and PBS solution was added for use as a blank control.

[6] = system: HL-60 cells; test: Transwell assay, longitudinal migration of HL-60 cells induced by CXCL12 (polypeptide-HSA complexes); conditions: 1000 nM of HSA, pre-experiment
Experimental: The culture plates were incubated in a 37° C., 5% CO2 incubator for 24 h.

[7] = system: SK-BR-3 cells; test: CCK cell viability (proliferation-toxicity) of SK-BR-3 cells; conditions: 4 μM HSA, pre-experiment
Experimental: SK-BR-3 was used as a model system for studying breast cancer cell lines. In a Corning 96-well plate, 1×10^4 cells were incubated with 100 μL of RPMI-1640 medium (containing 10% fetal bovine serum (FBS) and 1% penicillin-streptomycin) per well and the 96-well plate was pre-incubated under 37° C. and 5% CO2 for 24 hours. 10 μL solutions of poly peptide-HSA complex in PBS at various concentrations were added to the plate so that the final concentrations of the polypeptides were 10 nM, 100 nM, 200 nM, 400 nM, 1 μM, 2 μM, and 4 μM respectively. A blank control was obtained by adding only 10 μL of PBS solution. The culture plate was incubated in an incubator for 48 h, and 10 μL of CCK solution (Beijing FanboBiochemicals Co., Ltd.) was added to each well. The culture plate was incubated for 2 h in the incubator and the absorbance values (OD values) at 450 nm wavelength were measured by a continuous-spectrum multifunctional microplate reader (Tecan infinite M200, TECAN, Switzerland) to calculate cell viability (cell viability=OD450 nm (polypeptide-HSA complex)/(OD450 nm (blank control)×100%).

human serum albumin [HSA]
migration ability of SK-BR-3 cells versus blank control (longitudinal) [1]: no significant difference
cell viability of MDA-MB-231 cells versus cells alone [2]: not significantly different
migration rate of MDA-MB-231 cells versus blank control (longitudinal) [3]: not significantly different
migration rate of SK-BR-3 cells versus blank control (lateral) [4]: not significantly different
migration rate of MDA-MB-231 cells versus blank control (lateral) [5]: not significantly different
migration rate of HL-60 cells versus blank control (longitudinal) [6]: not significantly different
cell viability of SK-BR-3 cells versus cells alone [7]: not significantly different

— US20170360897A1, “POLYPEPTIDE AND POLYPEPTIDE COMPLEX FOR SUPPRESSING TUMOR METASTASIS AND TREATING LEUKEMIA AS WELL AS PREPARATION METHOD THEREFOR AND APPLICATION THEREOF” (National Center for Nanoscience and Technology, China, priority 2014, published 2017)
